What was measured:
M1mAChR [1] = biological target: T1, M1mAChR (Homo sapiens, UniProt P11229)
M1mAChR [2] = biological target: T1, M1mAChR; remark: listed apart in the source
M1mAChR [3] = biological target: T1, M1mAChR; remark: listed apart in the source
M1mAChR [4] = biological target: T1, M1mAChR; details: Scopolamine 100 μM; agonist 1 μM (Pilocarpine 300 μM); mean response 100 s before vs after antagonist
M1mAChR [5] = biological target: T1, M1mAChR; remark: listed apart in the source
M1mAChR [6] = biological target: T1, M1mAChR; details: calcium assay and commercial β-arrestin recruitment method
M1mAChR [7] = biological target: T1, M1mAChR; remark: listed apart in the source

Amino acid sequences for entries named in this document (tags omitted). A change or cut given only in a name is not applied to a line headed by its entry.
UniProt P11229: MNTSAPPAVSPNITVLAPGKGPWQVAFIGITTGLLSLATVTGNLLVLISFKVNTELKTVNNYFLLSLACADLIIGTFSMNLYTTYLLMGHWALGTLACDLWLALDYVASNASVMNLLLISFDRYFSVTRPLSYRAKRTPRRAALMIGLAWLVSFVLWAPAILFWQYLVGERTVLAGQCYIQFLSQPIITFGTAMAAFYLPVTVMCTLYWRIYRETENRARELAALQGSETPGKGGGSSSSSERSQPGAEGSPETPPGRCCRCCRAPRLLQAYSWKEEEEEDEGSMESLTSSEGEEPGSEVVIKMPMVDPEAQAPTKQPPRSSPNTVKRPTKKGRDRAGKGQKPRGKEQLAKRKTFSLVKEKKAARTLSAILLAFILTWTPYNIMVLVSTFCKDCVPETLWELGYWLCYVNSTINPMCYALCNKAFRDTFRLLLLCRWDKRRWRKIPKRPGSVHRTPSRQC

bias factor (Gαq vs β-arrestin2) (M1mAChR [1]): 4.5
∆∆RAi (Gαq − β-arrestin2) (M1mAChR [1]): 0.6
β-Arrestin (BRET) (Δlog (τ/KA)) (M1mAChR [2]): 0.94 ± 0.030
Gαq (BRET) (Δlog (τ/KA)) (M1mAChR [3]): 1.58 ± 0.050
decrease of agonist-induced Gαq BRET response by Scopolamine (M1mAChR [4]): approximately 49%
β-Arrestin (FRET) (Δlog (τ/KA)) (M1mAChR [5]): −0.29 ± 0.020
signaling bias by commercial methods (M1mAChR [6]): predominantly biased towards Gαq
Gαq (Fluo4-AM) (Δlog (τ/KA)) (M1mAChR [7]): 0.32 ± 0.002
SMILES: CCCCCCOc1nsnc1C1=CCCN(C)C1 [Xanomeline]

Source: article PMC10138654, “Structural Insights into M1 Muscarinic Acetylcholine Receptor Signaling Bias between Gαq and β-Arrestin through BRET Assays and Molecular Docking” (International Journal of Molecular Sciences, 2023)
